Test: Hemolysis assay, 50% lysis of RBC's
Format: cell-based
Details: human, 0.25% suspension of human erythrocytes (RBCs), pH 7; under the hemolysis conditions of Group I peptides; read-out: LD50
Method: The biological activities of these peptides were measured using human erythrocytes and E. coli as models for mammalian and bacterial cells, respectively. Hemolysis was monitored in 10 mM Tris, 150 mM NaCl, pH 7.0, while the bacterial assay was conducted in minimal media M9 (Table 1); both of these solutions are sufficiently transparent to allow CD and ultracentrifugation measurements (supplementary material). Under the assay conditions, the peptides gave CD spectra similar to those in Tris buffer, with the exception of H-(β^3-HLeu-β^3-HLys-β^3-HLeu)n-OH, n=5 and 6.
∇in M9 medium (data from Hamuro et al., ref. 5) # In M9 medium.+Hemolysis experiments were performed by incubating a 0.25% suspension of human RBc's in 10 mM Tris buffer containing […] at pH 7.0 with varying amounts of peptide. The hemolytic dose required to lyse 50% of the RBC's is reported as the HD50.
Hemolysis experiments were carried out by incubating 0.25% suspension of human erythrocytes (RBC's) with peptides of different concentrations in 150 mM sodium choloride, 10 mM Tris buffer, pH 7.0. The sample was prepared by combining 400 μL of the RBC suspension and […] of the peptide solution. After incubated the sample at 37— C. for 1 hour, the sample was centrifuged at 14,000 rpm for 5 min, and the OD414 of the supernatant was measured. Mellitin (50 μM) was used to get 100% hemolysis. […]

Question: With `CC[C@H](C)[C@H](NC(=O)CN)C(=O)NCC(=O)N[C@@H](C)C(=O)N[C@H](C(=O)N[C@@H](CC(C)C)C(=O)N[C@@H](CCCCN)C(=O)N[C@H](C(=O)N[C@@H](CC(C)C)C(=O)N[C@H](C(=O)N[C@H](C(=O)NCC(=O)N[C@@H](CC(C)C)C(=O)N1CCC[C@H]1C(=O)N[C@@H](C)C(=O)N[C@@H](CC(C)C)C(=O)N[C@H](C(=O)N[C@@H](CO)C(=O)N[C@@H](Cc1c[nH]c2ccccc12)C(=O)N[C@H](C(=O)N[C@@H](CCCCN)C(=O)N[C@@H](CCCNC(=N)N)C(=O)N[C@@H](CCCCN)C(=O)N[C@@H](CCCNC(=N)N)C(=O)N[C@@H](CCC(N)=O)C(=O)N[C@@H](CCC(N)=O)C(N)=O)[C@@H](C)CC)[C@@H](C)CC)[C@@H](C)O)[C@@H](C)O)C(C)C)C(C)C` [melittin, reference compound] as the compound, how does the HC50 at 1 h read?
Answer: ~500 nM
